Reference: US9752236B2, “Corrosion inhibitors” (Rhodia Operations, priority 2010, dated 2017)

Assay: Water solubility (remark on preparing the stock solution)

## Tall oil aminoethyl imidazoline [tall oil aminoethyl imidazole]
  water solubility: not water soluble
